Experimental data published in paper PMC10787225 (Computational and Structural Biotechnology Journal, 2023).

Key:
[1] = Thioflavin T (ThT) aggregation assay; format: physicochemical; settings: peptide 20–550 µM, up to 85 h, 20 mM NaPi, pH 7.4, 50 mM NaCl, 37 °C, 300 rpm, glass bead, 25 µM ThT, triplicate
Experimental: All ThT aggregation assays were done in Greiner 96-well half-area, clear bottom, low-binding plates. The measurements themselves were done in a BMG CLARIOstar plate reader at 37 °C and 300 rpm shaking in orbital mode with one glass bead (0.75–1 mm, Roth) per well. Wells with samples were always surrounded by wells filled with liquid, either other samples or 150 μl water, to counter potential artefacts due to evaporation. […] Final concentrations of 25 µM ThT and 0.04% sodium azide (NaN3) were added. The plate was sealed with sealing tape and put into the plate reader, heated to 37 °C, and ThT fluorescence was read in 1000 cycles of 300 s each using bottom optics with excitation at 448 nm (10 nm bandwidth) and emission at 482 nm (10 nm bandwidth). […] Samples contained 40 µM ThT and 0.04% NaN3.
Fig. 4 Test set of eight protein segments. (A) List of the investigated peptides. Underlined stretches in the peptide sequences correspond to the predicted amyloidogenic β-hairpins. A peptide was considered ‘soluble’ when no visible precipitation occurred upon dissolution of the lyophilized peptide in 20 mM NaPi, pH 7.4, 50 mM NaCl, to a final concentration of 20 µM. […] (B) Conformations of investigated segments (red) in the context of their source proteins.

[2] = Atomic force microscopy (AFM) of samples at the end of ThT aggregation assays; format: physicochemical; settings: end of ThT aggregation assay in 20 mM NaPi, pH 7.4, 50 mM NaCl; dried on mica
Experimental: For AFM imaging, 2 μl samples were taken out of the wells at the end of the ThT aggregation assays, put onto a freshly cleaved muscovite mica surface and dried during incubation for 10 min under the clean bench. Subsequently, the samples were washed with 100 μl ddH2O in three steps and dried with a stream of N2 gas. Imaging was performed in intermittent contact mode (AC mode) in a JPK NanoWizard 3 atomic force microscope using a silicon cantilever with silicon tip (OMCL-AC160TS-R3, Olympus) with a typical tip radius of 9 ± 2 nm, a force constant of 26 N/m and resonance frequency around 300 kHz. The images were processed using JPK DP Data Processing Software (version spm-5.0.84).

ThT [1]: +
SMILES: CC[C@H](C)[C@H](NC(=O)[C@H](CCSC)NC(=O)[C@@H](NC(=O)[C@H](CC(=O)O)NC(=O)[C@H](CO)NC(=O)[C@H](CCC(N)=O)NC(=O)[C@H](CCCNC(=N)N)NC(=O)[C@@H]1CCCN1C(=O)[C@H](CO)NC(=O)[C@H](C)NC(=O)[C@H](CCCNC(=N)N)NC(=O)[C@H](Cc1ccccc1)NC(=O)[C@@H](NC(=O)[C@@H](NC(=O)CNC(=O)[C@H](Cc1ccccc1)NC(=O)[C@H](CCCNC(=N)N)NC(=O)[C@@H](N)CC(=O)O)C(C)C)C(C)C)C(C)C)C(=O)N[C@H](C(=O)N[C@@H](C)C(=O)NCC(=O)N[C@H](C(=O)N[C@@H](CC(C)C)C(=O)N[C@H](C(=O)N[C@@H](CC(N)=O)C(=O)N[C@@H](CCCCN)C(=O)O)[C@@H](C)O)[C@@H](C)O)C(C)C [NDUFS7(104−129)]
AFM aggregate morphology [2]: fibrillar aggregates confirming amyloid formation were detected
